Experimental data: ChEMBL document CHEMBL3997776, “Oxime Ethers of (E)-11-Isonitrosostrychnine as Highly Potent Glycine Receptor Antagonists” (J Nat Prod, 2016)

The chains behind the UniProt entries cited, without tags or fusion partners. Residues count along the entry.
UniProt P23415, 29-457 limits assumed: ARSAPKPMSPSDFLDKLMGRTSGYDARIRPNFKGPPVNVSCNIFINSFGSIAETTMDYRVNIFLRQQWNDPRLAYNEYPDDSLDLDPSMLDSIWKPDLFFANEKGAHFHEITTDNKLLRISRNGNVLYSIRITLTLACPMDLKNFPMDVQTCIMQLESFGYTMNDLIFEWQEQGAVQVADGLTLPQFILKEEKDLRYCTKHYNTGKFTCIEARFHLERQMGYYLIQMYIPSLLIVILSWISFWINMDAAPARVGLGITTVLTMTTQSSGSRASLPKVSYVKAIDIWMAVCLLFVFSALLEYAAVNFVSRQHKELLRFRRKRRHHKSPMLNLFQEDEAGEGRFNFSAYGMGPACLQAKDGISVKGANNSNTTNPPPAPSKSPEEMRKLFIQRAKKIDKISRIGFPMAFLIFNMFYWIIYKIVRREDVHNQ
UniProt P48167, 23-497 limits assumed: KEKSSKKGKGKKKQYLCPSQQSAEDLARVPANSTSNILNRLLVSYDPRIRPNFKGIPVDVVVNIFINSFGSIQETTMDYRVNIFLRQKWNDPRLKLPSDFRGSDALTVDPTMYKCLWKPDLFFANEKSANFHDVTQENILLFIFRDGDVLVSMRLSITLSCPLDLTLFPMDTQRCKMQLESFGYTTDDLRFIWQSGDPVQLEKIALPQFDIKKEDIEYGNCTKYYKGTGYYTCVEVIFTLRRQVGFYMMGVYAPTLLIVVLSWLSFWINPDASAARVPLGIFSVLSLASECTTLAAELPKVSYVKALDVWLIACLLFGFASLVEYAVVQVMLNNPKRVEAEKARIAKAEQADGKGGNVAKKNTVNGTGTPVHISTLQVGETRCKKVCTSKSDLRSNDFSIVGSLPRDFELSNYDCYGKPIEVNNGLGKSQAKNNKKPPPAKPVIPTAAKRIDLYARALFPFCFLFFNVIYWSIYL

Columns and labels:
[1] = biological target: T1, Glycine receptor subunit alpha-1 (Homo sapiens, UniProt P23415); test: Antagonist activity at recombinant human glycine receptor alpha 1 expressed in human tsA201 cells assessed as inhibition of glycine-induced receptor activation after 30 mins by FLIPR membrane potential blue assay
[2] = biological target: T2, Glycine receptor (alpha-1/beta) (Homo sapiens, UniProt P23415+P48167); test: Antagonist activity at recombinant human glycine receptor alpha 1 beta expressed in HEK293 cells assessed as inhibition of glycine-induced current at -50mV holding potential by whole cell patch-clamp method
[3] = biological target: T1, Glycine receptor subunit alpha-1; test: Antagonist activity at recombinant human glycine receptor alpha 1 expressed in HEK293 cells assessed as inhibition of glycine-induced current at -50 mV holding potential by whole cell patch-clamp method
[4] = biological target: T1, Glycine receptor subunit alpha-1; test: Displacement of [3H]strychnine from recombinant human glycine receptor alpha 1 expressed in HEK293 cell membranes after 30 mins by liquid scintillation counting method
[5] = biological target: T2, Glycine receptor (alpha-1/beta); test: Antagonist activity at recombinant human glycine receptor alpha 1 beta expressed in human tsA201 cells assessed as inhibition of glycine-induced receptor activation after 30 mins by FLIPR membrane potential blue assay

`O=C1/C(=N/O)[C@@H]2OCC=C3CN4CC[C@]56c7ccccc7N1[C@H]5[C@H]2[C@H]3C[C@H]46` showed an IC50 [1] of 97 nM, an IC50 [2] of 80 nM and an IC50 [3] of 82 nM. The Ki [4] was 40 nM and the IC50 [5] was 210 nM.
